US10677782B2, “Methods of determining interferon having direct inhibitory effects on tumors and uses thereof” (SUPERLAB FAR EAST LIMITED, priority 2013, dated 2020)

What was measured:
[1] = tested on: Human Colon Cancer HT-29 Xenografts; experiment: Human colon cancer HT-29 xenografts in nude mice (Example 3); type: in vivo; conditions: 0.15 mg/mouse i.t. every other day
Description: (§1) Before commencement of this study, the xenografts were passaged twice in nude mice. Under sterile conditions, well-grown tumors were cut into 1.5 mm^3 fragments and one such fragment was injected by trocar needle into the right flank of each study animal. […] Individual tumor size (length and width) was measured twice per week with microcalipers. Tumor volume (V) was calculated using the formula: V=(length×width^2)/2. Individual relative tumor volume (RTV) was calculated using the formula: RTV=Vt/V0, where Vt is the tumor volume on the day of measurement and V0 is the tumor volume on the day of first treatment. Therapeutic effect of the test article or control article was expressed in terms of TIC (%), using the formula: TIC (%) (mean RTV of the treated group/mean RTV of the control group)×100%; and in terms of % Inhibition, using the formula: % Inhibition=100%−T/C %.
Then, 1.5 mm^3 fragments were prepared for s.c. implantation into the test animals.

[2] = tested on: human lung cancer SPC-A4 xenografts; experiment: Human lung cancer SPC-A4 xenografts in nude mice (Example 4); type: in vivo
Description: as §1
The 1.5 mm^3 fragments were then used for s.c. implantation into the test animals.

A549 cells = experiment: Cell viability, Am-Blue assay, 48 hr; type: cell-based, human; conditions: 100 μg/ml
Description: (§2) Cell culture and reagents human lung cancer cell lines (A549, H1299, H460, Calu-1), human liver cancer cell lines (SMMC-7721, Huh-7, CL-1), human cervical carcinoma cell line (Hela), human breast cancer cell line (MDA-MB-231), human pancreatic cancer cell line (PANC-1) and human colon cancer cell lines (SW620, HT29, SW480) were purchased from the Shanghai Cell Collection (Shanghai, China). The above cell lines were cultured in 5% CO2 at 37° C. in corresponding complete growth medium formulated by the Shanghai Cell Collection, with 10% heat-inactivated fetal bovine serum (Biochrom, Germany), supplemented with 4 mM glutamine, 50 U/ml penicillin and […] streptomycin.
(§3) About 5×10^3 cells in 100 μl complete medium per well were plated in 96-well plates, incubated overnight, and then treated with IFN α-2b or rSIFN-co at concentrations of 100 μg/ml, 50 μg/ml, 25 μg/ml, 12.5 μg/ml, 6.25 μg/ml, 3.13 μg/ml, 1.56 μg/ml, 0.78 μg/ml, 0.39 μg/ml, and 0.20 μg/ml, respectively, for about 48 hr, at which time the cells were harvested for analysis. The cell viability rate was evaluated by SunBio Am-Blue assay kit (Cat #: SBAB8025, Shanghai SBO Medical Biotechnology Co., Ltd, Shanghai, China). According to its protocol, 10 μl Am-Blue was added to each well. Then the cells were incubated in 5% CO2 at 37° C. for 4 hours. After shaking the plates for 30 seconds, the absorbance for each well was read at both 570 nm and 595 nm by a Thermo Scientific Microplate Reader (Thermon Fisher Scientific, Inc., Lowell, Mass.), The relative cell viability was calculated as follows: Cell viability=(Treated Group(OD570-OD595) minus Blank(OD570-OD595))/(Control group(OD570-OD595) minus Blank(OD570-OD595))×100%, where the Control group was the corresponding untreated cells. Results are shown in FIG. 5, in which viability of the tumor cells was expressed as a percentage relative to control cells that were not treated. Each data point represented the mean of at least two independent experiments.

CL-1 cells = experiment: Cell viability, Am-Blue assay, 48 hr; type: cell-based, human; conditions: 100 μg/ml
Description: as §2, §3

Calu-1 cells = experiment: Cell viability, Am-Blue assay, 48 hr; type: cell-based, human; conditions: 100 mcg/ml (μg/ml)
Description: as §2, §3

Hela cells = experiment: Cell viability, Am-Blue assay, 48 hr; type: cell-based, human; conditions: 100 μg/ml
Description: as §2, §3

Huh-7 cells = experiment: Cell viability, Am-Blue assay, 48 hr; type: cell-based, human; conditions: 100 mcg/ml (μg/ml)
Description: as §2, §3

MDA-MB-231 cells = experiment: Cell viability, Am-Blue assay, 48 hr; type: cell-based, human; conditions: 100 mcg/ml (μg/ml)
Description: as §2, §3

PANC-1 cells = experiment: Cell viability, Am-Blue assay, 48 hr; type: cell-based, human; conditions: 100 mcg/ml (μg/ml)
Description: as §2, §3

SMMC-7721 cells = experiment: Cell viability, Am-Blue assay, 48 hr; type: cell-based, human; conditions: 100 μg/ml
Description: as §2, §3

SW480 cells = experiment: Cell viability, Am-Blue assay, 48 hr; type: cell-based, human; conditions: 100 μg/ml
Description: as §2, §3

SW620 tumor cells = experiment: Cell viability over 1-6 days, MTT assay; type: cell-based, human; conditions: 10 μg/ml
Description: The cell survival rate was evaluated in a standard MTT assay (3-(4,5-dimethylthiazol-2-yl)-2,5-diphenyltetrazolium bromide assay, Sigma, St. Louis, Mo.). For the assay, about 20 μl MTT (at […]) was added to each well. The cells were incubated at 37° C. for 4 hr. After that, the supernatant of each well was drawn off carefully and then an equal volume (150 microliter) of dimethyl sulfoxide (DMSO) was added to each well and mixed thoroughly on a shaker for 15 min. The absorbance from the plates was read at 595 nm with a Thermo Scientific Microplate Reader (Thermo Fisher Scientific Inc., Lowell, Mass.). The relative cell viability was calculated as follows: Cell viability=(Treated group(OD595) minus blank(OD595))/(Control group(OD595) minus blank(OD595))×100%.

[3] = tested on: A549 cells xenograft tumors; experiment: A549 xenograft tumor growth in nude mice (Example 6B); type: in vivo, human; conditions: 100 μg/100 μl per mouse intratumorally every other day, 12 times; vs PBS; 27 days
Description: This experiment was conducted in accordance to the National Institutes of Health Guide for the Care and Use of Laboratory Animals. Female BALB/c nude mice, 4-5 weeks old, were obtained from Shanghai Experimental Animal Center (Shanghai, China). About 5×10^6 A549 cells were subcutaneously injected into each mouse to establish xenograft tumors. The animals were divided into three (3) groups at random (8 mice per group), and treated with PBS (1×PBS, pH 7.2-7.4), rSIFN-co at 100 μg/100 μl per mouse or with IFNα-2b, also at 100 μg/100 μl per mouse, intratumorally, every other day, for 12 times. The tumors were measured every three (3) days and the tumor volumes were calculated as follows: tumor volume (mm^3)=(length×width^2)/2. Data are shown as Mean±SD (n=8).

Lung cancer cells, A549 = experiment: Colony formation and pseudopod formation in 3D Matrigel culture; type: cell-based, human; conditions: 10 mcg/ml, after 8 days
Description: Matrigel (from BD Corporation, Cat #: 356234) was thawed on ice in a 4° C. refrigerator overnight, and a 24-well plate was frozen at −20° C. overnight. Thereafter, each well of the frozen 24-well plate was coated with 150 μl of the Matrigel at 1.0 mcg/ml. The Matrigel coated plate was then incubated 37° C. for 20-30 min. Lung cancer cells, A549, were trypsinized and counted. […] The cells were incubated at 37° C. for at least about 8 days. About 200 μl of the above conditioned medium was added every 3 days to prevent the medium from drying. On the 4th or 8th day, photographs were taken to observe the size of the colonies and invasive feet (pseudopod) formation. The experiment was conducted in triplicate.

[4] = tested on: beta-catenin protein level in A549 cells; experiment: Beta-catenin protein level by Western Blot; type: cell-based, human; conditions: 10 mcg/ml, 24 hr, 48 hr, or 72 hr
Description: (§4) Cancer cells, A549 and Sw480, were cultured to about 85% confluency and put into 6 well plates. The cells were treated with either 10 mcg/ml IFNα-2b or rSIFN-co or left untreated as control (Mock) for 24 hr, 48 hr, or 72 hr, respectively. After treatment, the cells were harvested for Western Blot to detect the beta-catenin protein level, using its specific antibody, with GAPDH as endogenous loading control. The experiment was conducted in triplicate.
(§5) To determine the expression of various proteins, cells were harvested from the plates and total cellular protein were extracted using extraction reagents (Cat #: P0013) according to the manufacturer's protocol (Beyotime, China). The total protein concentration was determined by the Lowry Protein Assay kit (Bio-Rad, USA). Total proteins were separated by sodium dodecylsulfate-polyacrylamide gel electrophoresis (SDS-PAGE) on 10%-12% gel and transferred to 0.22 or 0.45 μm PVDF membranes (Millipore Corporation, Billerica, Mass., USA). The membranes were blocked with 5% skimmed milk, bovine serum albumin, 10 mmol/L Tris-HCl at pH 8.0, 150 mmol/L NaCl, and 0.05% Tween 20 overnight at 4° C. […] Blots were visualized using Luminescence/Fluorescence Imaging LAS4000 System (GE Healthcare Life Sciences, USA) with super signal west pico chemiluminescent substrate kit (Thermo scientific, USA). […]

[5] = tested on: beta-catenin protein level in SW480 cells; experiment: Beta-catenin protein level by Western Blot; type: cell-based, human; conditions: 10 mcg/ml, 24 hr, 48 hr, or 72 hr
Description: as §4, §5

colon cancer SW620 cells = experiment: Cell migration assay across microporous membranes; type: cell-based, human; conditions: 10 μg/ml, 24 hr treatment; vs Mock
Description: (§6) The cell migration assay was performed using 8 μm cell culture inserts in 24-well plates (Becton-Dickinson Biosciences, NJ, USA). Warm (37° C.) bicarbonate based culture medium without FBS was added to the interior of the inserts and to the bottoms of the wells, and were allowed to rehydrate for 2 hr in humidified tissue culture incubator at 37° C. in 5% CO2. After rehydration, the culture medium was carefully removed. […] In the lower compartment of the 24-well plates were placed 500 μl of complete medium with 10% FBS. After 24 hr at 37° C. under the regular culture conditions, the non-migrated cells in the upper part of the chamber membranes were removed with a cotton swab. The lower part of the culture inserts were fixed with 4% paraformaldehyde and stained with 2% crystal violet. The number of migrated cells on the opposite side of the chamber membranes from where the cells were placed was counted in each of the triplicate wells. Each experiment was repeated at least two times, each time with triplicate wells.

lung cancer A549 cells = experiment: Cell migration assay across microporous membranes; type: cell-based, human; conditions: 10 μg/ml, 24 hr treatment; untreated Mock about 30
Description: as §6

[6] = tested on: procaspase-3, cleaved caspase-3, procaspase-8, cleaved caspase-8, PARP in A549 cells; experiment: Apoptosis-related molecular markers by Western Blot; type: cell-based, human; conditions: 24 hr or 48 hr; interferons at 10 mcg/ml
Description: (§7) Thereafter, apoptosis-related molecular markers were monitored by Western Blot. The primary antibodies used were mouse monoclonal anti-beta-tubulin (1:2000, Cat #: CW0098A) and mouse monoclonal anti-GAPDH (1:2000, Cat #: CW0100A) (Kangwei Biotechnology, China); mouse monoclonal anti-PARP (1:1000, Cat #: se-2007, Santa Cruz Biotechnology, Inc.); rabbit monoclonal anti-procaspase 3 (1:1000, Cat #: 9665), and rabbit polyclonal anti-cleaved caspase 3 (1:1000, Cat #: 9661) (Cell Signaling Technology, USA); goat polyclonal anti-procaspase 8 (1:1000, Cat #: sc-6136, Santa Cruz Biotechnology, Inc); rabbit monoclonal anti-cleaved caspase 8 (1:1000, Cat #: 9496) (Cell Signaling Technology, USA).

[7] = tested on: procaspase-3, cleaved caspase-3, procaspase-8, cleaved caspase-8, PARP in SW620 cells; experiment: as above; type: cell-based, human; conditions: 24 hr or 48 hr; interferons at 10 mcg/ml
Description: as §7

[8] = 0.15 mg/mouse i.t. every other day, day 21

Substance: IFN alpha-2b: Interferon alpha-2b comparator, from Shanghai Hua-xin High Biotechnology / Huiyang Life Science and Technology Corp.
- TV (mm^3, mean ± SD) (D0) ([1]; day 0, start of treatment): 128 ± 44 mm^3
- % Inhibition ([1]; day 28): 25.56%
- RTV (mean ± SD) ([1]; day 28): 6.26±1.43
- T/C (%) ([1]; day 28): 74.44%
- TV (mm^3, mean ± SD) (D28) ([1]; day 28): 831 ± 420 mm^3
- RTV (mean ± SD) ([1]; day 28, listed as IFNalpha-2b): 6.26 ± 1.43
- TV (mm^3, mean ± SD) (D0) ([2]; 0.15 mg/mouse i.t. every other day, day 0, start of treatment): 191 ± 44 mm^3
- % Inhibition [2, 8]: 34.53%
- RTV (mean ± SD) [2, 8]: 27.84 ± 15.51
- T/C (%) [2, 8]: 65.47%
- TV (mm^3, mean ± SD) (D21) [2, 8]: 4908 ± 2433 mm^3
- retardation of tumor growth (RTV) seen by ([2]; all doses, study to day 21, FIG. 4): 11 days
- reduction in viability (A549 cells): no or very little effect
- reduction in viability (CL-1 cells): no or very little effect
- reduction in viability (Calu-1 cells): Less than 50%
- reduction in viability (Hela cells): no or very little effect
- reduction in viability (Huh-7 cells): Less than 50%
- reduction in viability (MDA-MB-231 cells): Less than 50%
- reduction in viability (PANC-1 cells): Less than 50%
- reduction in viability (SMMC-7721 cells): no or very little effect
- reduction in viability (SW480 cells): no or very little effect
- cell viability, time dependent effect (SW620 tumor cells): little time-dependent effect, if any
- inhibition of tumor growth (tumor volume) [3]: did not exhibit remarkable suppression of tumor growth
- invasive feet (pseudopod) formation (Lung cancer cells, A549): pseudopod formation was obvious
- beta-catenin protein level [4]: did not cause any apparent decrease
- beta-catenin protein level [5]: did not cause any apparent decrease
- tumor cell migration (colon cancer SW620 cells): enhancement of tumor cell migration
- mean number of migrating cells per field (lung cancer A549 cells): about 110 cells per field
- level of apoptosis-related molecular markers (procaspase-3, procaspase-8, PARP, cleaved caspase-3, cleaved caspase-8) [6]: neither of the interferons, IFN alpha-2b nor rSIFN-co, caused any reduction in the level of procaspase-3 or procaspase-8 or PARP, or induced any enhancement in the level of cleaved caspase-3 or cleaved caspase-8
- level of apoptosis-related molecular markers (procaspase-3, procaspase-8, PARP, cleaved caspase-3, cleaved caspase-8) [7]: neither of the interferons, IFN alpha-2b nor rSIFN-co, caused any reduction in the level of procaspase-3 or procaspase-8 or PARP, or induced any enhancement in the level of cleaved caspase-3 or cleaved caspase-8
